In PubChem BioAssay AID652039 (The Scripps Research Institute Molecular Screening Center, 2013) one finds activation data, which are given here for two molecules.

Amino acid sequences for entries named in this document (tags omitted).
UniProt P49862, whole entry: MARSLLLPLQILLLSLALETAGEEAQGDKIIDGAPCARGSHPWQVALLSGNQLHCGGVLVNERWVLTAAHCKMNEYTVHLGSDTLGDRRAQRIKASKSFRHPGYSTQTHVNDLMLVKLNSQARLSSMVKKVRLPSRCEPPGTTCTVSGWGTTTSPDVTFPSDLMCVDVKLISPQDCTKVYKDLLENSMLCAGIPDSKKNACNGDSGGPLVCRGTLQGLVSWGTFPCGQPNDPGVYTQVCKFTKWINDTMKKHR

Each structure is given as a SMILES string. The list shows a part of the results, in another mix than the full data. Activity calls are given as the source filed them.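 How the source made its calls: active means activation above the mean of all tested compounds plus 3 SD, computed per campaign excluding outliers beyond control limits (cut at about 13% in these data); inactive means the rest.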

This experiment has as its target Kallikrein-7 (Homo sapiens) (UniProt P49862). Kind of experiment: proKLK7 zymogen activators, primary screen, biochemical, fluorescence intensity (AID 652039). Conditions: purified proKLK7, EDANS-DABCYL substrate fluorescence; at 7 µM; hits give high values; 100% is mature enzyme control, 0% vehicle.
As to `CCC(=O)N(c1ccccc1)C1(COC)CCN(CCc2cccs2)CC1`, the activation is inactive: 0.36%.

As to `CCC(=O)N(c1ccccc1)C1(COC)CCN(CCn2nnn(CC)c2=O)CC1`, the activation is inactive: 0.09%.
